From ChEMBL document CHEMBL5375970, “Discovery of Potent and Selective WDR5 Proteolysis Targeting Chimeras as Potential Therapeutics for Pancreatic Cancer” (J Med Chem, 2023)

Key:
[1] = biological target: WD repeat-containing protein 5 (Homo sapiens, UniProt P61964)

SMILES: Cc1ncsc1-c1ccc(CNC(=O)[C@@H]2C[C@@H](O)CN2C(=O)[C@@H](NC(=O)CNC(=O)c2ccc(F)c(-c3ccc(N4C[C@@H](C)N(C)[C@@H](C)C4)c(NC(=O)c4c[nH]c(=O)cc4C(F)(F)F)c3)c2)C(C)(C)C)cc1
- deltaH [1]: -4240 cal/mol
- deltaH (Homo sapiens): -2960 cal/mol
